Experimental data published in patent publication US12396457B2, “Laminarin based formulation for agricultural applications” (UPL Corporation Limited, priority 2020, dated 2025).

Conditions: use of glycerin in laminarin formulations

## Laminarin
  Laminarin solubility in water-based formulations: improve the laminarin solubility
